Experiment [1] in a line: Inhibition of human topoisomerase type 1B assessed as reduction in enzyme-mediated relaxation of supercoiled pBAD/Thio DNA after 30 mins by agarose gel electrophoresis method. The method, boiled down:
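Human topoisomerase I, 0.5 U, in manufacturer's reaction buffer; enzyme mixed with compound before 200 ng supercoiled pBAD/Thio plasmid added, 20 μL final. 37 °C for 30 minutes; stopped with SDS/bromophenol blue/glycerol buffer; agarose gel electrophoresis read-out.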

By UniProt entry, the sequences of proteins in these tests, tags left out. Where a name states a change or a piece, a line headed by the entry shows the natural chain unless it says otherwise.
UniProt P11388: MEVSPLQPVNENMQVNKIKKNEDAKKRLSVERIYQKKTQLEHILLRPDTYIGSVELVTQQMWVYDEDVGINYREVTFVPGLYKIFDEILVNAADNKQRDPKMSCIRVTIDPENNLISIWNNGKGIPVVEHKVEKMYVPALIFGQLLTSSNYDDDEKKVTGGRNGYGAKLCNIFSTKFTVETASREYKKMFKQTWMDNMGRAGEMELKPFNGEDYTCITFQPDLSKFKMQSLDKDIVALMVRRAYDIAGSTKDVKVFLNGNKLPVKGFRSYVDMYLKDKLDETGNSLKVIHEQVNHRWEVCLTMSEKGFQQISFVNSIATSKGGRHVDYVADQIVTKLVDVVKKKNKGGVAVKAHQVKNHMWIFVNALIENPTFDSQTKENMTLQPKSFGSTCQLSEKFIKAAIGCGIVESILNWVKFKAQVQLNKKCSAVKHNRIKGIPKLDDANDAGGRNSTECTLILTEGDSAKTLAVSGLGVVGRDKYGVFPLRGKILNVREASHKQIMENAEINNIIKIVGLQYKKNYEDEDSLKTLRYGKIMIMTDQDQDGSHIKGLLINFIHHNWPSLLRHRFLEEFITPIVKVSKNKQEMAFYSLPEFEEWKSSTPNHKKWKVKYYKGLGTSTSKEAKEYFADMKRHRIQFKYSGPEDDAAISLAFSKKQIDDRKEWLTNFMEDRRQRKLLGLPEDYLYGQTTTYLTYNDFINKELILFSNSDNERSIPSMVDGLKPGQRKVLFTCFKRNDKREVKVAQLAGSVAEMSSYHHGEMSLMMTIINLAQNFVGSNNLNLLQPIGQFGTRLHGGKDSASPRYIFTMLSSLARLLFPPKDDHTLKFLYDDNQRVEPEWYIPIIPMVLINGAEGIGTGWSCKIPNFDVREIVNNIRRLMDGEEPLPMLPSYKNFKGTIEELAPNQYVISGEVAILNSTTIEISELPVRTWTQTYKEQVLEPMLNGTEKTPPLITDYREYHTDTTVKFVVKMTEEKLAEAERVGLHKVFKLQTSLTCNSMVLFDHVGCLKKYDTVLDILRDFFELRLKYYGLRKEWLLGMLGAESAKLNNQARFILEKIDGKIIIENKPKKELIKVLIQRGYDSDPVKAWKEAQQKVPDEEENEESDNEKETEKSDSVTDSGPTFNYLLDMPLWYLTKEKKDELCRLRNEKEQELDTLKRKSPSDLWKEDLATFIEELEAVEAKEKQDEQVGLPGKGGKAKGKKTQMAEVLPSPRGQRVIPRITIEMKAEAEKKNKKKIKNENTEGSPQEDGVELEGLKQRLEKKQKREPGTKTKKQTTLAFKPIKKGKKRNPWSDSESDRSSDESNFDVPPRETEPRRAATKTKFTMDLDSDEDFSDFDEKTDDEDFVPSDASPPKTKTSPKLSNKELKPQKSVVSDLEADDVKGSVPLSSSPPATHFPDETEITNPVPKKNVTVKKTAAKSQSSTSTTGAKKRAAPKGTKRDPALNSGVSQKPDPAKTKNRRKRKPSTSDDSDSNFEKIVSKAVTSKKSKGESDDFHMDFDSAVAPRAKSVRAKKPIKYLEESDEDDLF

Experiment [2] in a line: Inhibition of recombinant Escherichia coli DNA gyrase expressed in Escherichia coli assessed as reduction in enzyme-mediated supercoiling of relaxed circular DNA preincubated with enzyme followed by substrate addition measured after 30 mins by agarose gel electrophoresis method.
Experiment [3] addresses DNA topoisomerase 2-alpha (Homo sapiens, UniProt P11388). The experiment can be described thus: Inhibition of human topoisomerase-2alpha assessed as reduction in enzyme-mediated decatenation using kinetoplast DNA as substrate after 15 mins by ethidium bromide staining based agarose gel electrophoresis method. The method, boiled down: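 Compounds added to 185 ng kinetoplast DNA in manufacturer's buffer, then 2 U human topoisomerase IIα. 15 minutes at 37 °C; stopped with sarkosyl-containing buffer; run on 1% agarose gels containing 0.5 μg/mL ethidium bromide, photographed under UV.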

Experiment [4] in a line: Inhibition of recombinant Escherichia coli topoisomerase 1a expressed in Escherichia coli assessed as reduction in enzyme-mediated relaxation of supercoiled pBAD/Thio DNA preincubated with enzyme followed by substrate addition measured after 30 mins by ethidium bromide staining based agarose gel electrophoresis method.

This is an account of results in ChEMBL document CHEMBL4041482, “Synthesis, evaluation, and CoMFA study of fluoroquinophenoxazine derivatives as bacterial topoisomerase IA inhibitors” (Eur J Med Chem, 2017).

The structures appear in SMILES notation.

One may read the IC50 as the concentration that gives 50% inhibition. On to `Nc1ccc2c(c1)Oc1c(N3CC[C@H](N)C3)c(F)cc3c(=O)c(C(=O)O)cn-2c13`, for which the figures for the IC50 in experiment [1], in experiment [2] and in experiment [3] were 3.9 µM, 3.9 µM and 0.97 to 1.95 µM, respectively.

What is called pIC50 is the negative decadic logarithm of the IC50, by convention in mol/L. In the case of `Nc1ccc2c(c1)Oc1c(NCCN3CCOCC3)c(F)cc3c(=O)c(C(=O)O)cn-2c13`, in experiment [4], the concentration for half-maximal inhibition (IC50) was 0.97 µM and the pIC50 stood at 6.01. Besides, in experiment [3], the IC50 is 3.9 to 7.8 µM.
